# Experimental data from PubChem BioAssay AID778 (Sanford-Burnham Center for Chemical Genomics, 2007).
# Sequences of proteins named here, by UniProt entry; tags and fusion partners are left off.
# UniProt P33261, whole entry, looked up: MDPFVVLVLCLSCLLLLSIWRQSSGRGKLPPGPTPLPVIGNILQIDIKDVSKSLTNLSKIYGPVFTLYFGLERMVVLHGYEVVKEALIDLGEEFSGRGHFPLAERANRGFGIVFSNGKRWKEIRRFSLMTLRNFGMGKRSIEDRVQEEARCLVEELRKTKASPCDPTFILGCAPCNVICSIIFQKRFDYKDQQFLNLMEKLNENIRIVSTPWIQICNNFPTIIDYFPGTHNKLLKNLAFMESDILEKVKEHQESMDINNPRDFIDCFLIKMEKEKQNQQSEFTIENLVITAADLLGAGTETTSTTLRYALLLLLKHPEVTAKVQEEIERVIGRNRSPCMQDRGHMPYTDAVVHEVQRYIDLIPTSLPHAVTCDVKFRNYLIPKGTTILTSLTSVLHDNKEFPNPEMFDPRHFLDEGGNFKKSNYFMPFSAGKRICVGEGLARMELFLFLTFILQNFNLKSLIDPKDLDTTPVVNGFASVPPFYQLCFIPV
# Only a part is listed here, and it is no random draw. Active and inactive are the calls of the source.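 How the source made its calls: active means CYP2C19 inhibition above a set limit at 5 µM in the primary screen (cut at about 50% in these data); inactive means the rest.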
# Biological target: Cytochrome P450 2C19 (Homo sapiens) (UniProt P33261)
# Assay: blockers of cytochrome P450 2C19 activity – biochemical, luminescence, ADME assay, primary screen (AID 778);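 further: plate controls were negative control wells for no effect and 2.5 mM tranylcypromine positive control for full effect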
# Conditions: CYP2C19 Supersomes, luciferin-H EGE luminescence, 30 min; at 5 µM; active compounds read high
row,SMILES,inhibition
1,O=C(COc1ccccc1)OC1CN2CCC1CC2 (stereo not given),inactive: -1.8%
2,COP1(=S)c2c(C)nn(CCC#N)c2N=C(c2ccc(F)cc2)N1C (stereo not given),inactive: 35.7%
3,CCN(CC)C(=S)SC(NC=O)C(Cl)(Cl)Cl (stereo not given),inactive: 46.9%
4,O=C(OC1CN2CCC1CC2)C12CC3CC(CC(C3)C1)C2 (stereo not given),inactive: -9.9%
5,Cc1cccc(OCC(=O)OC2CN3CCC2CC3)c1 (stereo not given),inactive: 11.1%
6,O=[N+]([O-])c1ccc2c(c1)nnn2O,inactive: -6.1%
7,CCOP1(=S)c2c(C)nn(CCC#N)c2N=C(c2ccc(F)cc2)N1C (stereo not given),inactive: 40.6%
8,O=P(Nc1nccs1)(c1ccccc1)c1nc2ccccc2s1 (stereo not given),active: 57.7%
9,CCOP1(=S)c2c(C)nn(CCC#N)c2N=C(c2ccccc2F)N1C (stereo not given),active: 89.6%
10,Cc1ccc(OCC(=O)OC2CN3CCC2CC3)cc1 (stereo not given),inactive: -5.3%
11,O=P1(Nc2ccc(Br)cn2)COc2ccccc2OC1,active: 91.5%
12,O=P1(Nc2ncccn2)COc2ccccc2OC1,inactive: -5.4%
13,Cc1nn(-c2ccccc2)c2c1P(=O)(N1CCOCC1)N(C)C(c1ccccc1)=N2 (stereo not given),inactive: 9.5%
14,Clc1n[nH]nc1-c1nn[nH][15n]1,inactive: -4.1%
15,O=P1(Nc2ccccn2)COc2ccccc2OC1,active: 58.6%
16,c1nnnn1CCn1cnnn1,inactive: -1.3%
17,O=P(Nc1nccs1)(c1ccccc1)c1ccccc1,inactive: -1.4%
18,O=C(OC1CN2CCC1CC2)c1cccc(Cl)c1 (stereo not given),inactive: 11.1%
19,COC(=O)c1cc2c(s1)N=C(c1ccccc1)N(C)P2(=O)N1CCOCC1 (stereo not given),inactive: -2.6%
20,CCC(=O)N1C2C3N(C(=O)CC)C1C1N(C(=O)CC)C(C(N1C(=O)CC)N3C(=O)CC)N2C(=O)CC,inactive: 21.6%
21,CCOC(=O)NC(Sc1ccccc1)C(Cl)(Cl)Cl (stereo not given),active: 71.4%
22,O=P1(Nc2nc3ccc(Cl)cc3s2)COc2ccccc2O1 (stereo not given),inactive: 12.4%
23,CC(C)CC(=O)NC(Sc1ccc(Cl)cc1)C(Cl)(Cl)Cl (stereo not given),active: 79.9%
24,Cc1c2non([O-])c-2c(C)[n+](=O)[n+]1[O-],inactive: 1%
25,Oc1ccccc1CNc1ccccn1,active: 51.7%
26,CCOP(=O)(Nc1ccccc1)OCC,inactive: 12.4%
27,CC1CCN(C(=O)Oc2c(Cl)cc(Cl)c3cccnc23)CC1,inactive: 14.2%
28,O=[N+]([O-])c1cccc2n[nH]nc12,inactive: -14%
29,CC(=O)N1C2C3N(C(C)=O)C1C1N(C(C)=O)C(C(N1C(C)=O)N3C(C)=O)N2C(C)=O,inactive: 45.8%
30,CCc1nc2c(n1)c1c(non1O)c1c2no[n+]1[O-],inactive: 3.8%
